For 1 compound, Ki results are on record in patent US8741926B2, “Macrocyclic inhibitors of hepatitis C virus” (Tibotec Pharmaceuticals Ltd., priority 2005, dated 2014).

Protein sequences, listed by entry. Tags and fused reporters are not part of them. Residues count along the entry.
UniProt P27958, 1027-1657: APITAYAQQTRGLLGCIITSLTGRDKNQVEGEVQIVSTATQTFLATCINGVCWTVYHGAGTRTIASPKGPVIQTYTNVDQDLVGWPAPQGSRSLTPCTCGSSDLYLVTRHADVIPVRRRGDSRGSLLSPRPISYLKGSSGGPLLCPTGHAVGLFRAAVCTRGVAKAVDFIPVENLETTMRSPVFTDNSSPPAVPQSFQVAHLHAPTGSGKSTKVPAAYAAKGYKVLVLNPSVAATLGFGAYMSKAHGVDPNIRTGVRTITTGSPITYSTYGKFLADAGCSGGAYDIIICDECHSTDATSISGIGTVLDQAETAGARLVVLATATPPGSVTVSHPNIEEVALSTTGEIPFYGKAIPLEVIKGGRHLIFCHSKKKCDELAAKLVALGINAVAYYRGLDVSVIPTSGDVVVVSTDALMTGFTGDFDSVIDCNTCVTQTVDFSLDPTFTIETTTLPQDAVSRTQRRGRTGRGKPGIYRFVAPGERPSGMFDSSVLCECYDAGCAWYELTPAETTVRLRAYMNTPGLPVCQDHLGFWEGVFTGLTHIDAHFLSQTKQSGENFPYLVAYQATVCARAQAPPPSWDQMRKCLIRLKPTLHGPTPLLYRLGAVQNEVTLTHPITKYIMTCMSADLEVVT

The target in this experiment is HCV NS3/4A protease (Hepatitis C virus genotype 1a (isolate H77) (HCV), UniProt P27958). Briefly: Inhibition assay (enzymatic assay) of full-length NS3 protease with NS4A cofactor. Conditions: full-length NS3 protease 1 nM, 25 μM NS4A cofactor, depsipeptide substrate, competitive inhibition model. It counts as biochemical. The method, then:
[Landro, 1997 #Biochem 36 9340-9348]. […] The solutions were stored at −20° C. between measurements.
[Liu, 1999 Analytical Biochemistry 267 331-335].

As for `COc1ccc2c(O[C@@H]3C[C@H]4C(=O)N[C@]5(C(=O)NS(=O)(=O)C6CC6)C[C@H]5/C=C\CCCCN(C)C(=O)[C@@H]4C3)cc(-c3nc(C(C)C)cs3)nc2c1Cl` [Compound 56, N-[17-[8-chloro-2-(4-isopropylthiazole-2-yl)-7-methoxyquinolin-4-yloxy]-13-methyl-2,14-dioxo-3,13-diazatricyclo[13.3.0.0^4,6]-octadec-7-ene-4-carbonyl](cyclopropyl)sulfonamide], the Ki (usually the equilibrium dissociation constant of an inhibitor or competing ligand from its target) was 0.0001 µM.
